Results as given in PMC5508335 (Journal of Veterinary Internal Medicine, 2017).

System: healthy purpose-bred cats
Details: in vivo

## CN1CC[C@]23c4c5ccc(O)c4O[C@H]2C(=O)CC[C@H]3[C@H]1C5 [hydromorphone]
  cats with successful emesis: 75%
